The record followed here is paper PMC8327618 (Journal of the American Chemical Society, 2021).

The nature of data set [1]: Spectroscopic characterization in 0.1 M NaOH. The format is physicochemical. To be noted: in 0.1M NaOH(aq).
A short description of data set [2]: Water solubility in PBS relative to 2’,7’-dichlorofluorescein. Format: physicochemical.

Regarding “2’,7’-dichloro-3-carboxyfluorescein [2’,7’-dichloro-3-carboxy-fluorescein, reference compound]”, the λem in data set [1] stood at 523 nm. Besides, in data set [1] (at max absorption), the ε is 86,000 M^−1cm^−1. The substance further yielded a Φfl in data set [1] (relative to fluorescein) of 0.94. Moreover, the Solubility in data set [2] stood at 1.
